## Measured affinities in a library of Ab-14 light chain variants

From the AlphaSeq antibody data of Engelhart et al. 2022 (doi:10.1038/s41597-022-01779-4), copy in the FLAb collection.

Binding partner: SARS-CoV-2 spike HR2 peptide, sequence PDVDLGDISGINAS.

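The parent was found by panning a naive human phage display library on the peptide. The library (AAYL50) carries one to three amino acid substitutions per variant, with no insertions or deletions. AlphaSeq pools MATa yeast showing the antibodies with MATalpha yeast showing the peptide. Pairs that bind mate more often; barcode pairs of the diploids are counted by sequencing. Scores were corrected for input abundance and mapped to Kd with protein pairs of known affinity run in the same pool. There are three technical replicates.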

Each scFv is VH, the linker GGGGSGGGGSGGGGS, VL, as in the parent Ab-14, and differs from it in the CDRs of the light chain only.
VH: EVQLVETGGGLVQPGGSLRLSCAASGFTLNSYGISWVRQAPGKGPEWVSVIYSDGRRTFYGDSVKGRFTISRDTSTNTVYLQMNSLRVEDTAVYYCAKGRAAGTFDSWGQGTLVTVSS
VL: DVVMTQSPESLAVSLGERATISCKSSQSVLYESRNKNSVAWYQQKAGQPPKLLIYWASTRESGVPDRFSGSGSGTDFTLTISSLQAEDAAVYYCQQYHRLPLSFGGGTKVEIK

Each variant is given by its three light chain CDRs, as the data file delimits them; those of the parent are KSSQSVLYESRNKNSVA, WASTRES, QQYHRLPLS.
Numbers give log10(Kd / nM), so 0 is 1 nM and 3 is 1 µM. Smaller is tighter.
An entry "nd" has no value in the source: the pair was not observed among the diploids in that replicate. This suggests poor binding but is not conclusive.
Background: pairings of library AAYL50 with three empty control strains gave a value in 18% of cases (median 4.19, 5th percentile 2.99). Values in that range, when seen in few replicates, are hard to tell from nonspecific mating. For each scFv, signals with the empty controls are counted beside the result, with their mean in brackets.
Parent in this assay: reference entry 0.65, copy in this library 1.68.

CDR-L1,CDR-L2,CDR-L3,"log10 Kd, replicates",signal with controls
KHSQSVLYESLNKNSVA,WASTRES,QQYHRLQLS,nd 5.80 5.77,6 of 9 (4.64)
KSSQSSLYESRNKNSVA,WASTRES,QQYHRLPGS,nd nd nd,2 of 9 (3.58)
KSSQSVLYEERNKNSVA,WASTREI,QQYHRLPLS,0.44 0.77 0.50,1 of 9 (3.70)
KSEQSVLYESRNKNSVA,WASCRES,YQYHRLPLS,2.03 2.38 2.14,1 of 9 (3.58)
KSSQSVQYNSRNKNSVA,WASTRES,QQYHRLPLS,0.61 0.92 0.85,1 of 9 (3.31)
KSSQSVLMESRNKNSVA,WAHTRES,QKYHRLPLS,3.42 3.63 3.88,1 of 9 (3.63)
KSSQSVLYEAANKNSCA,WASTRES,QQYHRLPLS,3.27 3.39 3.60,0 of 9
LSSQSVLYESRYKNSVA,WASTRES,QQTHRLPLS,nd nd nd,3 of 9 (4.34)
KQSQSVLYESRNKNSCA,WASTRYS,QQYHRLPLS,nd nd nd,1 of 9 (2.53)
KPCQSVLTESRNKNSVA,WASTRES,QQYHRLPLS,1.43 1.44 1.50,1 of 9 (3.27)
KSSQSVIYESRNKNSVA,WAWTRES,QQYHRLPLS,nd nd nd,0 of 9
NVSQSVLYESRNKNGVA,WASTRES,QQYHRLPLS,0.91 1.05 1.12,0 of 9
KSSQSVLYESRNKNSVA,WASDREW,QQYHRLWLS,3.39 2.48 2.56,1 of 9 (4.26)
KSSASVLYESRNKNSVQ,WASTRES,QQYKRLPLS,nd nd nd,0 of 9
KSSQSVLYESRNKNSVA,WASVRIS,QQYHTLPLS,nd nd nd,0 of 9
KSQQSVLYESRNKNSVA,WAQTMES,QQYHRLPLS,nd nd nd,0 of 9
KSSQSVLYESRNKNSVA,WASTRES,QQLHRLHLS,nd nd nd,5 of 9 (4.52)
KSSQSVLYESRNKQSQA,WASTRIS,QQYHRLPLS,nd 3.48 3.54,4 of 9 (4.47)
KHSQSVLYESRNKDSVA,WATTRES,QQYHRLPLS,1.25 1.35 1.43,1 of 9 (3.99)
KNSQSVLYESRYKNSVA,WASTRES,QQYHRLFLS,nd nd 5.30,1 of 9 (3.02)
KSSQSVLYESRNKNSVA,WASTRSS,QQSHRLTLS,2.39 2.36 nd,3 of 9 (3.31)
KKSQSVLYESRNKNSVA,WARTRMS,QQYHRLPLS,1.20 0.79 0.75,0 of 9
KSSQSVLYESRNKNSVA,WASTRAS,QQWHQLPLS,nd nd nd,0 of 9
LSSQSVLYESMNKNSVA,WVSTRES,QQYHRLPLS,3.37 3.73 4.12,3 of 9 (5.44)
ISSQSVPYESRNKHSVA,WASTRES,QQYHRLPLS,1.47 1.78 1.84,1 of 9 (5.82)
KSELSVLYESRNKNSVE,WASTRES,QQYHRLPLS,nd 3.95 nd,4 of 9 (4.49)
YSSQSWLYESRNKNSVA,WASNRES,QQYHRLPLS,3.12 2.31 nd,0 of 9
KSFQSVLYESRNQNSVA,WASTRES,QQYGRLPLS,2.27 1.50 1.66,1 of 9 (3.97)
KSSQSCLYESRNKNSVA,WASTKES,RQYHRLPLS,2.88 2.70 3.12,5 of 9 (4.49)
KSSQSYLYESRNKNSVA,WASTRES,QQYHRCPLR,nd nd nd,0 of 9
KSSQSVLYESRNKNSVA,WAETREG,QQYHRLPLS,2.18 2.31 2.81,0 of 9
VSSQSVLYESRHKNSVA,WASTREE,QQYHRLPLS,1.28 1.40 1.41,3 of 9 (4.45)
KSSQSVLYESRNKNSVA,CARTRES,QQYHQLPLS,2.37 2.42 2.78,5 of 9 (4.68)
KSSQSVLYGSINKNSVA,WASTRES,QQLHRLPLS,5.58 nd nd,2 of 9 (3.57)
KSSYSVLYESRNKNSVA,WASTRES,QQYHELPLA,1.97 1.70 2.08,1 of 9 (3.73)
KSSQSVLYESRNKNMHA,WASTRES,QQYHSLPLS,nd nd nd,0 of 9
KSSQSVCYESRNKNKVG,WASTRES,QQYHRLPLS,nd nd 4.70,1 of 9 (4.84)
KSSQSVLYEQRNKNSYA,WASTRES,QQMHRLPLS,5.97 nd 3.52,4 of 9 (3.90)
DSSQSVLYESRNKASVA,WASTRES,QQYHRLPLP,nd nd nd,3 of 9 (4.53)

A selection of 4 entries from above:

| CDR-L1 | CDR-L2 | CDR-L3 | log10 Kd, replicates | signal with controls |
|---|---|---|---|---|
| KSSQSVLYESRNKNMHA | WASTRES | QQYHSLPLS | nd nd nd | 0 of 9 |
| KSSQSVLYEAANKNSCA | WASTRES | QQYHRLPLS | 3.27 3.39 3.60 | 0 of 9 |
| KSSASVLYESRNKNSVQ | WASTRES | QQYKRLPLS | nd nd nd | 0 of 9 |
| KNSQSVLYESRYKNSVA | WASTRES | QQYHRLFLS | nd nd 5.30 | 1 of 9 (3.02) |